Among the data in paper PMC5177531 (ACS chemical neuroscience, 2016) are BMAX values, retold here.

Sequences of proteins named here, by UniProt entry; tags and fusion partners are left off. A change or cut given only in a name is not applied to a line headed by its entry. Residues count along the entry.
UniProt P42866, 1-386 limits assumed: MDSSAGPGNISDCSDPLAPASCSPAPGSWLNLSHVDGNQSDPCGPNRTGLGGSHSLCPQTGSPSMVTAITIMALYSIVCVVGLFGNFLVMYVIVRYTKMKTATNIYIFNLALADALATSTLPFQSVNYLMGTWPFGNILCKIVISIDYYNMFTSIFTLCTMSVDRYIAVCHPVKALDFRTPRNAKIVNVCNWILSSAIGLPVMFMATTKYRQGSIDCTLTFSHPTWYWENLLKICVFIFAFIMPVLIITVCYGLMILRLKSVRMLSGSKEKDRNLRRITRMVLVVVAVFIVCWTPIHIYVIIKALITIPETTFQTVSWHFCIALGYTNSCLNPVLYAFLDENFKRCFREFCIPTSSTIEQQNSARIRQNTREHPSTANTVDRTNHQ

The target in assay [1] is mu binding sites (Oprm1 variants) in spinal cord (Mus musculus, UniProt P42866). Put plainly: Radioligand saturation binding in spinal cord membranes.
Assay [2] addresses mu binding sites (Oprm1 variants) in brain membranes (Mus musculus, UniProt P42866). Put plainly: Radioligand saturation binding in brain membranes.

Take “^3H-D-Ala2,N-MePhe4,Gly(ol)5]Enkephalin [^3H-DAMGO]”: the BMAX came to 78 ± 1 fmol/mg in assay [1] (129, spinal cord, E11 KO); 76 ± 1 fmol/mg in assay [1] (129, spinal cord, WT); 71 ± 2 fmol/mg in assay [1] (C57, spinal cord, E11 KO); 73 ± 5 fmol/mg in assay [1] (C57, spinal cord, WT); 33 ± 5 fmol/mg in assay [2] (129, brain, E11 KO); 31 ± 0.1 fmol/mg in assay [2] (129, brain, WT). In addition, the BMAX came out at 103 ± 13 fmol/mg in assay [2] (C57, brain, E11 KO) and 130 ± 7 fmol/mg in assay [2] (C57, brain, WT).
